The text below walks through data of ChEMBL document CHEMBL4627399, “Synthesis and Structure-Activity Relationships of 5'-Aryl-14-alkoxypyridomorphinans: Identification of a μ Opioid Receptor Agonist/δ Opioid Receptor Antagonist Ligand with Systemic Antinociceptive Activity and Diminished Opioid Side Effects” (J Med Chem, 2020).

As a reminder, the logD is the decadic logarithm of the distribution of all forms, ionised or not, between an organic phase and buffer at a given pH. The low end stands for lower lipophilicity, the high end for higher lipophilicity.

Data set [1] is described as follows: Distribution coefficient between 1-octanol and phosphate buffer, logD of the compound at 50 nM incubated for 24 hrs by LC-MS/MS analysis. It is filed as physicochemical. The following applies: octanol/water, 0.05 µM.
Data set [2] in a line: Half life in CD-1 mouse liver microsomes at 1 uM measured up to 60 mins by reversed phase LC method. The format is ADME, Microsome. The conditions noted are these: 1 h. For orientation: Liver microsomes are vesicles of endoplasmic reticulum, rich in cytochrome P450 enzymes.
In data set [3] the test system is Mus musculus. The data set is described as follows: Antinociceptive activity in CD-1 mouse assessed as time above 30% onset antinociceptive effect at 10 nmol, icv measured up to 5 hrs post dose by warm water tail-flick assay. It is filed as functional. For orientation: Thermal pain tests record how soon the animal reacts.
Data set [4] deals with Mus musculus. The data set is described as follows: Antinociceptive activity in CD-1 mouse assessed as maximal peak effect at 1 to 10 mg/kg, iv measured at 45 mins by warm water tail-flick assay relative to control. It is filed as functional.

As to `Oc1ccc2c3c1O[C@H]1c4ncc(-c5ccc(Cl)cc5)cc4C[C@@]4(OCCCc5ccccc5)[C@@H](C2)N(CC2CC2)CC[C@]314`, the logD in data set [1] came out at 0.393. This molecule gave a t1/2 in data set [2] of 9.72 min.

In data set [1], `Cc1ccccc1-c1cnc2c(c1)C[C@@]1(OCCCc3ccccc3)[C@H]3Cc4ccc(O)c5c4[C@@]1(CCN3CC1CC1)[C@H]2O5` had a logD of 2.68. Also, in data set [2], the t1/2 came out at 6.48 min.

In data set [1], `Oc1ccc2c3c1O[C@H]1c4ncc(-c5ccccc5)cc4C[C@@]4(OCCCc5ccccc5)[C@@H](C2)N(CC2CC2)CC[C@]314` had a logD of 0.868. For the same molecule, the t1/2 in data set [2] is 8.96 min.

With `Cc1cccc(-c2cnc3c(c2)C[C@@]2(OCCCc4ccccc4)[C@H]4Cc5ccc(O)c6c5[C@@]2(CCN4CC2CC2)[C@H]3O6)c1`, in data set [1], the logD was 3.39. In data set [2], this molecule registered a t1/2 of 7.09 min.

In the case of `Oc1ccc2c3c1O[C@H]1c4ncc(-c5ccccc5)cc4C[C@@]4(OCCCc5ccc(F)cc5)[C@@H](C2)N(CC2CC2)CC[C@]314`, the logD in data set [1] stood at 2.38. Further, in data set [2], the t1/2 amounted to 81.1 min.

In the case of `COc1cccc(-c2cnc3c(c2)C[C@@]2(OCCCc4ccccc4)[C@H]4Cc5ccc(O)c6c5[C@@]2(CCN4CC2CC2)[C@H]3O6)c1`, in data set [1], the logD is given as 2.58. The same molecule showed a t1/2 in data set [2] of 10.5 min.

The molecule `Oc1ccc2c3c1O[C@H]1c4ncc(-c5cn[nH]c5)cc4C[C@@]4(OCCCc5ccccc5)[C@@H](C2)N(CC2CC2)CC[C@]314` had a logD in data set [1] of 0.707. Also, the t1/2 in data set [2] is recorded as 7 min.

Turning to `CN(C)c1cccc(-c2cnc3c(c2)C[C@@]2(OCCCc4ccccc4)[C@H]4Cc5ccc(O)c6c5[C@@]2(CCN4CC2CC2)[C@H]3O6)c1`, the logD in data set [1] is 3.38. In data set [2], this molecule registered a t1/2 of 7.1 min.

Regarding `Oc1ccc2c3c1O[C@H]1c4ncc(-n5cccc5)cc4C[C@@]4(OCCCc5ccccc5)[C@@H](C2)N(CC2CC2)CC[C@]314`, the logD in data set [1] stood at 3.3. The t1/2 in data set [2] worked out at 7.07 min.

In turn, `CC(=O)Nc1ccc(-c2cnc3c(c2)C[C@@]2(OCCCc4ccccc4)[C@H]4Cc5ccc(O)c6c5[C@@]2(CCN4CC2CC2)[C@H]3O6)cc1` came in with a log distribution coefficient (logD) in data set [1] of 3.15. In data set [2], this molecule had a t1/2 of 11 min.

In data set [1], `Oc1ccc2c3c1O[C@H]1c4ncc(-c5ccccc5)cc4C[C@@]4(OCCCCc5ccccc5)[C@@H](C2)N(CC2CC2)CC[C@]314` registered a logD of 2.33. The t1/2 in data set [2] is recorded as 16.8 min.

Turning to `Oc1ccc2c3c1O[C@H]1c4ncc(-c5ccc(Cl)cc5)cc4C[C@@]4(OCCCc5ccncc5)[C@@H](C2)N(CC2CC2)CC[C@]314`, in data set [1], the logD is listed as 1.73. This molecule also gave a t1/2 in data set [2] of 12.2 min.

In turn, `COc1ccc(-c2cnc3c(c2)C[C@@]2(OCCCc4ccccc4)[C@H]4Cc5ccc(O)c6c5[C@@]2(CCN4CC2CC2)[C@H]3O6)cc1` registered a pH-dependent lipophilicity (logD) in data set [1] of 1.93. The t1/2 in data set [2] is on record as 9.03 min. Moreover, the Time with Mus musculus [3] came out at 10 min.

`Oc1ccc2c3c1O[C@H]1c4ncc(-c5ccc(F)cc5F)cc4C[C@@]4(OCCCc5ccccc5)[C@@H](C2)N(CC2CC2)CC[C@]314` returned a logD in data set [1] of 2.84. The same molecule gave a t1/2 in data set [2] of 10.4 min.

On to `COc1cc(-c2cnc3c(c2)C[C@@]2(OCCCc4ccccc4)[C@H]4Cc5ccc(O)c6c5[C@@]2(CCN4CC2CC2)[C@H]3O6)ccn1`, for which, in data set [1], the pH-dependent lipophilicity (logD) is listed as 4.32. The molecule also had a t1/2 in data set [2] of 13.4 min.

The molecule `Cc1cc(F)ccc1-c1cnc2c(c1)C[C@@]1(OCCCc3ccccc3)[C@H]3Cc4ccc(O)c5c4[C@@]1(CCN3CC1CC1)[C@H]2O5` showed a logD in data set [1] of 4.52. This molecule also gave a t1/2 in data set [2] of 8.27 min. Moreover, in the data set with Mus musculus [3], the Time is 10 min.

The molecule `Oc1ccc2c3c1O[C@H]1c4ncc(-c5ccc(Cl)cc5)cc4C[C@@]4(OCc5ccc6ccccc6n5)[C@@H](C2)N(CC2CC2)CC[C@]314` returned a logD in data set [1] of 2.79. Moreover, in data set [2], the t1/2 came out at 9.4 min.

Take `Oc1cccc(-c2cnc3c(c2)C[C@@]2(OCCCc4ccccc4)[C@H]4Cc5ccc(O)c6c5[C@@]2(CCN4CC2CC2)[C@H]3O6)c1`: the logD in data set [1] stood at 3.73. This molecule came in with a t1/2 in data set [2] of 7.36 min.

Consider `Oc1ccc2c3c1O[C@H]1c4ncc(-c5cccnc5)cc4C[C@@]4(OCCCc5ccccc5)[C@@H](C2)N(CC2CC2)CC[C@]314`, for which the pH-dependent lipophilicity (logD) in data set [1] worked out at 3.67. This molecule had a t1/2 in data set [2] of 8.22 min.

For `Oc1ccc2c3c1O[C@H]1c4ncc(-c5ccncc5)cc4C[C@@]4(OCCCc5ccccc5)[C@@H](C2)N(CC2CC2)CC[C@]314`, the logD in data set [1] was determined as 3.53. The t1/2 in data set [2] worked out at 11.1 min.

`CN(C)c1ccc(-c2cnc3c(c2)C[C@@]2(OCCCc4ccccc4)[C@H]4Cc5ccc(O)c6c5[C@@]2(CCN4CC2CC2)[C@H]3O6)cc1` yielded a logD in data set [1] of 1.87. Also, the t1/2 in data set [2] stood at 7.83 min.

In turn, `Oc1ccc2c3c1O[C@H]1c4ncc(-c5ccc(Br)cc5)cc4C[C@@]4(OCCCc5ccccc5)[C@@H](C2)N(CC2CC2)CC[C@]314` showed a logD in data set [1] of 3.64. The t1/2 in data set [2] is on record as 9.64 min.

In the case of `Cc1nocc1-c1cnc2c(c1)C[C@@]1(OCCCc3ccccc3)[C@H]3Cc4ccc(O)c5c4[C@@]1(CCN3CC1CC1)[C@H]2O5`, the logD in data set [1] stood at 2.11. In data set [2], the t1/2 is 18.5 min.

As for `Oc1ccc2c3c1O[C@H]1c4ncc(-c5ccc(F)cc5)cc4C[C@@]4(OCCCc5ccccc5)[C@@H](C2)N(CC2CC2)CC[C@]314`, the log distribution coefficient (logD) in data set [1] turned out to be 0.428. In data set [2], this molecule came in with a t1/2 of 10.4 min.

Molecule `COc1ccccc1-c1cnc2c(c1)C[C@@]1(OCCCc3ccccc3)[C@H]3Cc4ccc(O)c5c4[C@@]1(CCN3CC1CC1)[C@H]2O5` showed a logD in data set [1] of 2.01. The molecule also gave a t1/2 in data set [2] of 8.65 min.

`Cn1cc(-c2cnc3c(c2)C[C@@]2(OCCCc4ccccc4)[C@H]4Cc5ccc(O)c6c5[C@@]2(CCN4CC2CC2)[C@H]3O6)cn1` came in with a logD in data set [1] of 0.943. Further, the t1/2 in data set [2] stood at 21.7 min.

For the molecule `Oc1ccc2c3c1O[C@H]1c4ncc(-c5ccccc5)cc4C[C@@]4(OCCCc5ccncc5)[C@@H](C2)N(CC2CC2)CC[C@]314`, in data set [1], the logD is reported as 0.818. Moreover, in data set [2], the t1/2 is reported as 8.88 min.

The molecule `Cc1cc(-c2cnc3c(c2)C[C@@]2(OCCCc4ccccc4)[C@H]4Cc5ccc(O)c6c5[C@@]2(CCN4CC2CC2)[C@H]3O6)ccn1` yielded a logD in data set [1] of 1.74. Moreover, the t1/2 in data set [2] was 9.6 min.

In data set [1], `Oc1ccc2c3c1O[C@H]1c4ncc(-c5ccccc5)cc4C[C@@]4(OCCCC5CCOCC5)[C@@H](C2)N(CC2CC2)CC[C@]314` yielded a log distribution coefficient (logD) of 3.37. Also, the t1/2 in data set [2] came to 6.49 min.

As for `Oc1ccc2c3c1O[C@H]1c4ncc(-c5ccc(F)c(F)c5)cc4C[C@@]4(OCCCc5ccccc5)[C@@H](C2)N(CC2CC2)CC[C@]314`, the logD in data set [1] turned out to be 2.92. Moreover, the t1/2 in data set [2] was 8.08 min.

Regarding `Oc1ccc2c3c1O[C@H]1c4ncc(-c5ccccc5)cc4C[C@@]4(OCCCC5CCCCC5)[C@@H](C2)N(CC2CC2)CC[C@]314`, in data set [1], the logD is 3.27. Moreover, in data set [2], the t1/2 is recorded as 27.6 min.

Take `Cc1nnc(-c2cnc3c(c2)C[C@@]2(OCCCc4ccccc4)[C@H]4Cc5ccc(O)c6c5[C@@]2(CCN4CC2CC2)[C@H]3O6)o1`: the logD in data set [1] is recorded as 2.85. Also, the Activity with Mus musculus [4] was 80%. The same molecule registered a t1/2 in data set [2] of 6.35 min.

Take `Oc1ccc2c3c1O[C@H]1c4ncc(-c5ccc(Cl)cc5)cc4C[C@@]4(OCCOc5ccccc5)[C@@H](C2)N(CC2CC2)CC[C@]314`: the logD in data set [1] was determined as 2.72. Moreover, the t1/2 in data set [2] is 160 min.

In turn, `Oc1ccc2c3c1O[C@H]1c4ncc(-c5ccccc5C5CC5)cc4C[C@@]4(OCCCc5ccccc5)[C@@H](C2)N(CC2CC2)CC[C@]314` registered a logD in data set [1] of 3.73. The t1/2 in data set [2] came out at 8.28 min.

`Oc1ccc2c3c1O[C@H]1c4ncc(-c5cncnc5)cc4C[C@@]4(OCCCc5ccccc5)[C@@H](C2)N(CC2CC2)CC[C@]314` showed a logD in data set [1] of 2. The molecule further registered a t1/2 in data set [2] of 26.8 min.

On to `Cc1ccc(-c2cnc3c(c2)C[C@@]2(OCCCc4ccccc4)[C@H]4Cc5ccc(O)c6c5[C@@]2(CCN4CC2CC2)[C@H]3O6)cc1`, for which the logD in data set [1] was 2.44. This molecule also yielded a t1/2 in data set [2] of 7.86 min.

`CC(=O)Nc1cccc(-c2cnc3c(c2)C[C@@]2(OCCCc4ccccc4)[C@H]4Cc5ccc(O)c6c5[C@@]2(CCN4CC2CC2)[C@H]3O6)c1` returned a log distribution coefficient (logD) in data set [1] of 2.6. Besides, the t1/2 in data set [2] worked out at 14 min.

`Oc1ccc2c3c1O[C@H]1c4ncc(-c5ccccn5)cc4C[C@@]4(OCCCc5ccccc5)[C@@H](C2)N(CC2CC2)CC[C@]314` showed a logD in data set [1] of 2.32. Besides, in data set [2], the t1/2 is 6.25 min.

As for `CN(C)Cc1ccccc1-c1cnc2c(c1)C[C@@]1(OCCCc3ccccc3)[C@H]3Cc4ccc(O)c5c4[C@@]1(CCN3CC1CC1)[C@H]2O5`, the logD in data set [1] worked out at 3.65. Further, the t1/2 in data set [2] was 12.7 min.

In turn, `Oc1ccc2c3c1O[C@H]1c4ncc(-c5ccncn5)cc4C[C@@]4(OCCCc5ccccc5)[C@@H](C2)N(CC2CC2)CC[C@]314` displayed a logD in data set [1] of 3.3. Also, the t1/2 in data set [2] is recorded as 10.1 min.

For the molecule `CN(C)c1ccccc1-c1cnc2c(c1)C[C@@]1(OCCCc3ccccc3)[C@H]3Cc4ccc(O)c5c4[C@@]1(CCN3CC1CC1)[C@H]2O5`, in data set [1], the logD is reported as 1.93. The same molecule gave a t1/2 in data set [2] of 9.78 min.

In data set [1], `Oc1ccc2c3c1O[C@H]1c4ncc(-c5cnccn5)cc4C[C@@]4(OCCCc5ccccc5)[C@@H](C2)N(CC2CC2)CC[C@]314` came in with a log distribution coefficient (logD) of 3.55. Besides, the t1/2 in data set [2] was 8.72 min.

On to `Cc1cccc(C)c1-c1cnc2c(c1)C[C@@]1(OCCCc3ccccc3)[C@H]3Cc4ccc(O)c5c4[C@@]1(CCN3CC1CC1)[C@H]2O5`, for which the logD in data set [1] is listed as 3.08. This molecule came in with a t1/2 in data set [2] of 8.27 min.
